# Tested on: Nc1ncnc2c1ncn2[C@@H]1O[C@H](COP(=O)(O)OP(=O)(O)OP(=O)(O)O)[C@@H](O)[C@H]1O
# Experiment: purified protein
# Conditions: pH 7.0, 45 °C, 100 mM Mg2+, glutamate and NH4+ as co-substrates, range 0.5-5 mM
substance,measurement,value
rTsGS (Trichinella spiralis),Km,160 µM

# — paper PMC8488193, “Characterization of a Novel Glutamine Synthetase From Trichinella spiralis and Its Participation in Larval Acid Resistance, Molting, and Development” (Frontiers in Cell and Developmental Biology, 2021)
